For one molecule, IC50 and EC50 results are on record in ChEMBL document CHEMBL1151959, “Identification and biological evaluation of a series of 1H-benzo[de]isoquinoline-1,3(2H)-diones as hepatitis C virus NS5B polymerase inhibitors” (J Med Chem, 2009).

Test [1] can be described thus: Inhibition of HCV1b BK NS5B Cdelta21 RNA dependent RNA polymerase. Also noted: species or system Hepatitis C virus (isolate BK). In a few lines:
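Truncated ΔC21 NS5B RdRp from the HCV genotype 1b BK strain or the genotype 2b 2b.2 strain. Values are the mean of two or more experiments, with SD within 30% of the mean.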

The next test concerns Hepatitis C virus. As to the kind of experiment: Antiviral activity against HCV1b Con1 infected in human Huh7 clone HBI10A cells expressing HEPREP 1b replicon by cell-ELISA assay. The test is classed as functional, organism-based, Hepacivirus hominis. As to conditions: isolate Con1, Huh-7.

What is called IC50 is the concentration that gives 50% inhibition. By EC50 is commonly meant the concentration that produces a half-maximal response. A low value points to higher potency in that assay. Consider `O=C1c2cccc3c(NCCO)ccc(c23)C(=O)N1c1cccc(Br)c1`, for which, in test [1], the IC50 turned out to be 0.02 µM. In the test on Hepatitis C virus, this molecule displayed an EC50 of 7.1 µM.
